Assay results from article PMC8095187.

target: monomeric G-actin, P60709; experiment: in vitro actin cross-linking assay (EDC/sulfo-NHS), Western blot densitometry; conditions: chain shown with the change; G-actin at equimolar ratio; cross-linked for 45 minutes at room temperature; parent: est. 1.0; read off a plot

response | Binder
1.1 A.U. | Recombinant Tmod3-WT, Q9JHJ0 S25D (protein) MALPFRKDLGDYKDLDEDELLGKLDESELKQLETVLDDLDPENALLPAGFRQKNQTSKSATGPFDRERLLSYLEKQALEHKDRDDYVPYTGEKKGKIFIPKQKPAQTLTEETISLDPELEEALTSASDTELCDLAAILGMHNLIADTPFCDVLGSSNGVNQERFPNVVKGEKILPVFDEPPNPTNVEESLKRIRENDARLVEVNLNNIKNIPIPTLKDFAKTLEANTHVKHFSLAATRSNDPVAVAFADMLKVNKTLKSLNMESNFITGAGVLALIDALRDNETLMELKIDNQRQQLGTSVELEMAKMLEENTNILKFGYQFTQQGPRTRAANAITKNNDLVRKRRIEGDHQ
1.6 A.U. | Recombinant Tmod3-WT, Q9JHJ0 S71A (protein) MALPFRKDLGDYKDLDEDELLGKLSESELKQLETVLDDLDPENALLPAGFRQKNQTSKSATGPFDRERLLAYLEKQALEHKDRDDYVPYTGEKKGKIFIPKQKPAQTLTEETISLDPELEEALTSASDTELCDLAAILGMHNLIADTPFCDVLGSSNGVNQERFPNVVKGEKILPVFDEPPNPTNVEESLKRIRENDARLVEVNLNNIKNIPIPTLKDFAKTLEANTHVKHFSLAATRSNDPVAVAFADMLKVNKTLKSLNMESNFITGAGVLALIDALRDNETLMELKIDNQRQQLGTSVELEMAKMLEENTNILKFGYQFTQQGPRTRAANAITKNNDLVRKRRIEGDHQ
1.7 A.U. | Recombinant Tmod3-WT, Q9JHJ0 S25A (protein) MALPFRKDLGDYKDLDEDELLGKLAESELKQLETVLDDLDPENALLPAGFRQKNQTSKSATGPFDRERLLSYLEKQALEHKDRDDYVPYTGEKKGKIFIPKQKPAQTLTEETISLDPELEEALTSASDTELCDLAAILGMHNLIADTPFCDVLGSSNGVNQERFPNVVKGEKILPVFDEPPNPTNVEESLKRIRENDARLVEVNLNNIKNIPIPTLKDFAKTLEANTHVKHFSLAATRSNDPVAVAFADMLKVNKTLKSLNMESNFITGAGVLALIDALRDNETLMELKIDNQRQQLGTSVELEMAKMLEENTNILKFGYQFTQQGPRTRAANAITKNNDLVRKRRIEGDHQ
